Literature values as cited in patent US20040266795A1, “Process for the preparation of famciclovir” (priority 2003, published 2004).

Details: cited from earlier work

2-[2-(2-amino-9H-purin-9-yl)ethyl]-1,3-propane diacetate [famciclovir]
solubility in water (anhydrous form, 25° C.): > 25 % w/v
solubility in isopropanol (isopropanol): sparingly soluble
solubility in methanol (methanol): freely soluble
